Experimental findings from US10202388B2, “Fused-ring compounds, pharmaceutical composition and uses thereof” (SHANGHAI DE NOVO PHARMATECH CO., LTD., priority 2015, dated 2019) are described below.

Amino acid sequences for entries named in this document (tags omitted).
UniProt P14902, whole entry: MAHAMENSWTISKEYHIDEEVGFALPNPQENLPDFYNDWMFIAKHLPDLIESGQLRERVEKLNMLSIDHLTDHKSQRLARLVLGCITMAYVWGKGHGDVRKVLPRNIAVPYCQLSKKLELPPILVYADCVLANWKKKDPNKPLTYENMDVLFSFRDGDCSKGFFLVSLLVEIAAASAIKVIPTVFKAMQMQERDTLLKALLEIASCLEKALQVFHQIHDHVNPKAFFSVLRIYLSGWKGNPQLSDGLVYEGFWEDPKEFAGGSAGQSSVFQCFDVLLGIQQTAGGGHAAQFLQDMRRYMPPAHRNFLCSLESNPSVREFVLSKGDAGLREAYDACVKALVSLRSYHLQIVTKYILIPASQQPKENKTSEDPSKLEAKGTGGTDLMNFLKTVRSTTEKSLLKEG

In one assay the target is HeLa cell IDO1 (Homo sapiens (Human), UniProt P14902). Briefly: HeLa cell based IDO1 inhibition assay (kynurenine readout, IFN-γ induced). The settings on record: read-out: HeLa cell IDO1 IC50, HeLa cells.
As to `CC1(O)C2CC3CC1CC(C(O)CC1c4c(F)cccc4-c4cncn41)(C3)C2` (single isomer, unassigned) [24A], the IC50 is below 100 nM.
`CC(=O)Nc1ccc(S(=O)(=O)NC2C3CC4CC2CC(C(O)CC2c5c(F)cccc5-c5cncn52)(C4)C3)cc1` (stereo not drawn): the IC50 is 100 to 500 nM.
Regarding `N#Cc1ccc(NC(=O)NC23CC4CC(C2)C(C(O)CC2c5ccccc5-c5cncn52)C(C4)C3)cc1` (single isomer, unassigned) [161A], the IC50 lay within 100 to 500 nM.
With `CC1(O)C2CC3CC1CC(C(O)CC1c4c(F)cccc4-c4cncn41)(C3)C2` (single isomer, unassigned) [24B], the IC50 was in the range of 100 to 500 nM.
As for `NS(=O)(=O)NCCCOC1C2CC3CC1CC(C(O)CC1c4c(F)cccc4-c4cncn41)(C3)C2` (single isomer, unassigned) [132A], the IC50 lay in the range of 100 to 500 nM.
`N#Cc1ccc(NC(=O)NC23CC4CC(C2)C(C(O)CC2c5ccccc5-c5cncn52)C(C4)C3)cc1` (single isomer, unassigned) [161B]: the IC50 was in the range of 500 to 1000 nM.
Take `NS(=O)(=O)NCCCOC1C2CC3CC1CC(C(O)CC1c4c(F)cccc4-c4cncn41)(C3)C2` (single isomer, unassigned) [132B]: the IC50 lay in the range of 1000 to 10000 nM.
Regarding `O=S(=O)(Cc1ccccc1)NC12CC3CC(C1)C(C(O)CC1c4ccccc4-c4cncn41)C(C3)C2` (stereo not drawn), the IC50 was in the range of 100 to 500 nM.

Staying with this assay, now noted: read-out: HeLa cell IDO1 IC50, HeLa cells, tested form: HCl.
Turning to `Cc1ccc(S(=O)(=O)NC23CC4CC(C2)C(C(O)CC2c5ccccc5-c5cncn52)C(C4)C3)cc1` (stereo not drawn), the IC50 was below 100 nM.

A word on the IC50: it is the concentration needed to halve the response being measured.
